Measured values as given in paper PMC5986199.

Target: wildtype α/β-NAC heterodimer (nascent polypeptide–associated complex) from Caenorhabditis elegans (C. elegans) (UniProt Q18885)
Assay: cross-linking; BS3 (d0/d4) at 20- or 50-fold molar excess, 20 uM NAC alone or + 20 uM substrate, 10 mM sodium phosphate pH 7.0, room temperature 1 h; SDS-PAGE, in-gel tryptic digest, LC-MS/MS

α-synuclein (from UniProt P37840 1-140) (natural protein)
stoichiometry N: 1
